This is an account of results in ChEMBL document CHEMBL3804781, “Antitrypanosomal activity of 5-nitro-2-aminothiazole-based compounds” (Eur J Med Chem, 2016).

SMILES strings stand for the structures. Bounds are passed on as bounds.

A short description of this experiment: Selectivity ratio of IC50 for bloodstream form of Trypanosoma brucei rhodesiense STIB 900 trypomastigotes to IC50 for bloodstream form of Trypanosoma brucei brucei. It counts as functional.
As for `O=C(CN1CCN(c2ccc(C(F)(F)F)cc2)CC1)Nc1ncc([N+](=O)[O-])s1`, the Ratio IC50 is less than 12.

For `O=C(CN1CCN(C(c2ccccc2)c2ccc(Cl)cc2)CC1)Nc1ncc([N+](=O)[O-])s1` (stereo unspecified), the Ratio IC50 was less than 12. The value for `O=C(CN1CCN(c2ccccn2)CC1)Nc1ncc([N+](=O)[O-])s1` was less than 12; that for `O=C(Nc1ncc([N+](=O)[O-])s1)c1ccc(-c2ccccc2)cc1` was less than 12; that for `O=C(CN1CCN(c2ccc(Cl)c(Cl)c2)CC1)Nc1ncc([N+](=O)[O-])s1` was less than 12. Under `O=C(COc1ccc(-c2ccccc2)cc1)Nc1ncc([N+](=O)[O-])s1` stands less than 12.
